From US4728509A, “Aqueous liquid preparation” (Takeda Chemical Industries, Ltd., priority 1985, dated 1988)

Experiment: Solubility test of compound (a) with and without solubilizers (Experimental Example 1; HPLC of filtrate)
Conditions: in words; substance used as solubilizer

nicotinic acid [reference compound]
effect for improving the solubility of compound (a): some improvement
